Measurements taken from patent US10342794B2, “Substituted imidazo[1,2-a]pyrazines as Syk inhibitors” (Gilead Sciences, Inc., priority 2013, dated 2019).

Test system: basophils in human whole blood (CD63 expression)
Assay: 384-Well HTBS Whole Blood CD63 Basophil Assay (25% blood)
Format: cell-based
Conditions: comparison table with known compounds, head prints IC50
Description: Syk activity was assessed in relation to reduced activation of basophils as measured by the expression of CD63 in a human whole blood basophil cellular assay (25% blood). Basophil activation was measured in human whole blood using the Flow CAST kit (Buhlmann Laboratories AG, Baselstrasse, Switzerland) following the protocol provided by the manufacturer with minor modifications. Fresh human whole blood in heparin was collected and delivered same day (AllCells, Emeryville, Calif.). Whole blood samples were incubated with either DMSO (1% final) or serial diluted compounds in DMSO for 60 minutes at 37° C. Basophils were activated using the anti-FceRI mAb and stained with anti-CD63-FITC and anti-CCR3-PE for 20 minutes at 37° C. (per well: 50 μL of whole blood was mixed with 113 μL of stimulation buffer, 8.5 μL anti-FceRI mAb, 8.5 μL Ab stain CCR3-PE/CD63-FITC). Cells were centrifuged at 1000×g for 18 minutes and 150 μL/well of supernatant removed. […] Degranulation (basophil activation) was detected by CD63 surface expression on CCR3 positive cells. The percent CD63 positive cells within the gated basophil population were determined and normalized to the DMSO (negative control) and control compound (positive control).

IC50: 734 nM
SMILES: COc1ccc(Nc2nc(-c3ccc(N)nc3)cn3ccnc23)cc1OC [6-(6-aminopyridin-3-yl)-N-(3,4-dimethoxyphenyl)imidazo[1,2-a]pyrazin-8-amine, reference compound]
